Laboratory results reported in ChEMBL document CHEMBL1938349 (Bioorg Med Chem, 2012).

Target: T1, 5-hydroxytryptamine receptor 2C (Rattus norvegicus, UniProt P08909)
T1 sequence (P08909 whole entry): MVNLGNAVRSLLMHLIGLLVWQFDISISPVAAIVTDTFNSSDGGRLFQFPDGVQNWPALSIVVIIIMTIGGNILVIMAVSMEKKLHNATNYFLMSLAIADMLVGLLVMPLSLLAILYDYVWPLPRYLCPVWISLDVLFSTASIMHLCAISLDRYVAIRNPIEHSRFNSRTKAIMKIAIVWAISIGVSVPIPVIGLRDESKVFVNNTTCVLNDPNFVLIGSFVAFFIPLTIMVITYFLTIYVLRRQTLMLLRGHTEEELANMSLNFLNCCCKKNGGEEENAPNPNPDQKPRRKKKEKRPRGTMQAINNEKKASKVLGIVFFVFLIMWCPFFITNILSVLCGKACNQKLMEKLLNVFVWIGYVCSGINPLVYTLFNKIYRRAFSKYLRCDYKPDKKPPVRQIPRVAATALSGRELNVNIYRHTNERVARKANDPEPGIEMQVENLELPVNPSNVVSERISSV
Experiment: Displacement of [3H]mesulergine from rat 5HT2C receptor by liquid scintillation counting

Structure (SMILES): OC1(c2ccc(Cl)cc2)CCN(CCCSc2ccc(F)cc2)CC1
- Ki: > 10 µM
